Measurements from paper PMC12678819, “Targeting bacterial kinases as a strategy to counteract antibiotic resistance” (2025).

Protein sequences, listed by entry. Tags and fused reporters are not part of them. Residues count along the entry.
UniProt Q16566, 46-300 limits assumed: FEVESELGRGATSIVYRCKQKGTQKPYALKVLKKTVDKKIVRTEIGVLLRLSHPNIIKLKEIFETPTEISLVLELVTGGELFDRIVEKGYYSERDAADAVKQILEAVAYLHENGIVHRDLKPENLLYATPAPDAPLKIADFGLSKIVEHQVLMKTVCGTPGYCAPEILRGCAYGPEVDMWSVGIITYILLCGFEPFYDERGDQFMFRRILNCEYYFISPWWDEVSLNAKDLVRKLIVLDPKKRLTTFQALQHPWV
UniProt P48730, 9-277 limits assumed: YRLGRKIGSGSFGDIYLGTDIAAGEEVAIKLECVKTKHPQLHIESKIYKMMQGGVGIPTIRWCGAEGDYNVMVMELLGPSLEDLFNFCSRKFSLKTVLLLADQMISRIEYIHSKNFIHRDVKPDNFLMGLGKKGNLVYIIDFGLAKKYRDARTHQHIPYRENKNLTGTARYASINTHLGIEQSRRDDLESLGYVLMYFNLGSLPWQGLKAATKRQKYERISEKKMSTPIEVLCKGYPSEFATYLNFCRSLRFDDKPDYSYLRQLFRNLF
UniProt Q9H2G2, 19-320 limits assumed: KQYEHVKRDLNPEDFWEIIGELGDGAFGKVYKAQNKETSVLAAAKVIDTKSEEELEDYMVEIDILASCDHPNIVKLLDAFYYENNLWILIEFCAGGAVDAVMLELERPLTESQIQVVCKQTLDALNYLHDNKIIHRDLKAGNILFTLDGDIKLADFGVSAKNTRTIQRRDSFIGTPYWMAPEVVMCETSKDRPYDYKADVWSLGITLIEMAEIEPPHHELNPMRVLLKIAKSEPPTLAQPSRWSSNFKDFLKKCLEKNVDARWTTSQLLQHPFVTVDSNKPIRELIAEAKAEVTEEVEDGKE
UniProt Q9Y2H1, 90-453 limits assumed: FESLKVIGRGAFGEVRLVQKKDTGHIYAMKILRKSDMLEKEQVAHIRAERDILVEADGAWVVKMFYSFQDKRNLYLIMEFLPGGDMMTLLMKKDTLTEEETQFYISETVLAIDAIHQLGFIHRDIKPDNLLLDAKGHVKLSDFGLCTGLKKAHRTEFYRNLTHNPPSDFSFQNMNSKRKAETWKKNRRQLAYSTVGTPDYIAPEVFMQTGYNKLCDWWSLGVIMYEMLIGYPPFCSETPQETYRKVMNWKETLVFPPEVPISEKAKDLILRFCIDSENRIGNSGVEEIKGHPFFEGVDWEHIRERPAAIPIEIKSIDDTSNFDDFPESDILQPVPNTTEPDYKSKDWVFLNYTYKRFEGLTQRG
UniProt P53779, 39-402 limits assumed: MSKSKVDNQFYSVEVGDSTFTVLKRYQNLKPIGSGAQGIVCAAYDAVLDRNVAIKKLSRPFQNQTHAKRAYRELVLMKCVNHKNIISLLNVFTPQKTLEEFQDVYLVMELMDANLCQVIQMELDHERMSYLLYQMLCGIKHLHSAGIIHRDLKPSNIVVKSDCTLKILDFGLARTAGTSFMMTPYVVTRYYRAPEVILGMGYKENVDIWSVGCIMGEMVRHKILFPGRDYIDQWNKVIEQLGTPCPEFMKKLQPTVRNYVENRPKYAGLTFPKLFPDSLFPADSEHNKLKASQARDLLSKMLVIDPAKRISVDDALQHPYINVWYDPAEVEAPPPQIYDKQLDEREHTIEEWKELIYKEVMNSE
UniProt Q8TDX7, 34-299 limits assumed: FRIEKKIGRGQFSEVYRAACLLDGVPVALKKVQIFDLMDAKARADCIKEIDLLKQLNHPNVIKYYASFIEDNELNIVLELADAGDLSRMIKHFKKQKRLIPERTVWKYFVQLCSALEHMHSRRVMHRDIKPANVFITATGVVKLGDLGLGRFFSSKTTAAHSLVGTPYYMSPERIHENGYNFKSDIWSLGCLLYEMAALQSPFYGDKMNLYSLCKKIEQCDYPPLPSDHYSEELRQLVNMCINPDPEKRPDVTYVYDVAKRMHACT
UniProt O94768, 25-329 limits assumed: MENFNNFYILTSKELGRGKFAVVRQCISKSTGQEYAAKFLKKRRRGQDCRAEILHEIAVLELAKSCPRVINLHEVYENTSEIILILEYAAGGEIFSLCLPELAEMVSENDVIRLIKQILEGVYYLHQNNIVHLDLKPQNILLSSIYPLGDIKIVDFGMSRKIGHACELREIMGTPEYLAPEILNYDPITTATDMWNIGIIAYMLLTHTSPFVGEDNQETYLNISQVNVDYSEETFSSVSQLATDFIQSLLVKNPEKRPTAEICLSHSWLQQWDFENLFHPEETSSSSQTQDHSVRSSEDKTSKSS
UniProt Q99683, 659-951 limits assumed: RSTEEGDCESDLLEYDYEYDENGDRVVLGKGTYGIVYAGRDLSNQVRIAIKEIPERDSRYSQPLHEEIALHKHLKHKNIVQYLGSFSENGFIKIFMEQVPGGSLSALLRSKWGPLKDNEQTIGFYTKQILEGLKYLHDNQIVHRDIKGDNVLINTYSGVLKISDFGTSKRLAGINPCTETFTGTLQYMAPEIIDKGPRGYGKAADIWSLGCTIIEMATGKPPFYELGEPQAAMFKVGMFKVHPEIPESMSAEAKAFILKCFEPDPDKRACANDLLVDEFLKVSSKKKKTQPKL
UniProt P45983, 1-364 limits assumed: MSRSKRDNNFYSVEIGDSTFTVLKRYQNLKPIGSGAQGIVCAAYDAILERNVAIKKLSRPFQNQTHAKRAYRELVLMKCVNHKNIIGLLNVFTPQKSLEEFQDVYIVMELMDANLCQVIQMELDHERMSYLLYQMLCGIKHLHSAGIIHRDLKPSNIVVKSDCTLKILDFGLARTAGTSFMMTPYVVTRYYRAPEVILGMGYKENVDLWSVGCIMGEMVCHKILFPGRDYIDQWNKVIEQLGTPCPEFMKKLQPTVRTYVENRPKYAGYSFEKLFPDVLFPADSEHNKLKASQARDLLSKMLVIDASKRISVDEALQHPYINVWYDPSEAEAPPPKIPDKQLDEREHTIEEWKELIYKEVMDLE
UniProt O15075, 372-649 limits assumed: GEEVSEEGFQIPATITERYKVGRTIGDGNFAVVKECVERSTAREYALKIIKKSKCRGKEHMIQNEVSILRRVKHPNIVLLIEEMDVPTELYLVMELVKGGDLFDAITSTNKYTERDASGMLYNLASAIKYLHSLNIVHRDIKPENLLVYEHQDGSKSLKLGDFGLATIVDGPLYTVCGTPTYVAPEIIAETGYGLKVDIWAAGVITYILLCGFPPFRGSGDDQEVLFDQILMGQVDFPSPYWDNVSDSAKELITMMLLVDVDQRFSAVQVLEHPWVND
UniProt Q13043, 1-311 limits assumed: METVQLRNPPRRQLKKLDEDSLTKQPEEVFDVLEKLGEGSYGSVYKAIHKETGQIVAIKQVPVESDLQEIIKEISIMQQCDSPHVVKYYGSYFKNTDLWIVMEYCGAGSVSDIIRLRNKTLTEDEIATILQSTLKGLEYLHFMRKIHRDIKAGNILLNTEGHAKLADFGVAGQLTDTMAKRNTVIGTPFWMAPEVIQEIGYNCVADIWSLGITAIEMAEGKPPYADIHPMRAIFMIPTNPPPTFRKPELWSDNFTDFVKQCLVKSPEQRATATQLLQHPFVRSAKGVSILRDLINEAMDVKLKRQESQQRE
UniProt Q15375, 590-899 limits assumed: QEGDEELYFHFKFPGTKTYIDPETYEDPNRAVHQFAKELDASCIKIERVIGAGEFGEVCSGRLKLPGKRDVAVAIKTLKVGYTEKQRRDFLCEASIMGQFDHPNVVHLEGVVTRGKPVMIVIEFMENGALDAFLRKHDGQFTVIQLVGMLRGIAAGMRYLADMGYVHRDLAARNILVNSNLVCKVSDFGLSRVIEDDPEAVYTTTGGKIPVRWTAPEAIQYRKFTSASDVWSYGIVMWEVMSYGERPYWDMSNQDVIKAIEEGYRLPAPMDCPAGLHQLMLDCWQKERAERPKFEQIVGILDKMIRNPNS
UniProt P45985, 102-367 limits assumed: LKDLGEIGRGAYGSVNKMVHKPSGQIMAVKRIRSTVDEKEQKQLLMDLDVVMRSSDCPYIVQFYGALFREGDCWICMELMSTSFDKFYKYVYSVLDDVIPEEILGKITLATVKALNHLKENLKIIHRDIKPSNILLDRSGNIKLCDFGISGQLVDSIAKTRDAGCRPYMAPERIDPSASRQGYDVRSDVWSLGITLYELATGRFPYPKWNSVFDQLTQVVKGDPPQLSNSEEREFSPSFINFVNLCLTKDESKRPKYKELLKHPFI
UniProt Q00536, 163-478 limits assumed: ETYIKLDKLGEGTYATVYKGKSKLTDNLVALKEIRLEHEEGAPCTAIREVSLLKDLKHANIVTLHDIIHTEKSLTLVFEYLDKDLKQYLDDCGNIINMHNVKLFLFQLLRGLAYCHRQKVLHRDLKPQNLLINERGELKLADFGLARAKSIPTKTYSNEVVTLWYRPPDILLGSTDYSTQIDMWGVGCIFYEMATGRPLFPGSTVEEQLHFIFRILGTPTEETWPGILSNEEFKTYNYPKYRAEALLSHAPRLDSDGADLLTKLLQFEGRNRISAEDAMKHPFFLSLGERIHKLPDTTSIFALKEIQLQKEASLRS
UniProt Q9Y6E0, 36-286 limits assumed: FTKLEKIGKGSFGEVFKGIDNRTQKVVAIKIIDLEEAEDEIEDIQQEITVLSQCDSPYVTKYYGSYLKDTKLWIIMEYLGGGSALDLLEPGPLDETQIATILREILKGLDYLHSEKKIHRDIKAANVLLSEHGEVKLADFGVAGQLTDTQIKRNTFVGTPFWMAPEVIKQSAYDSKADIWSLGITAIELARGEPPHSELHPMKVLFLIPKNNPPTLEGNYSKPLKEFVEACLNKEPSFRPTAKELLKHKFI
UniProt P52564, 53-314 limits assumed: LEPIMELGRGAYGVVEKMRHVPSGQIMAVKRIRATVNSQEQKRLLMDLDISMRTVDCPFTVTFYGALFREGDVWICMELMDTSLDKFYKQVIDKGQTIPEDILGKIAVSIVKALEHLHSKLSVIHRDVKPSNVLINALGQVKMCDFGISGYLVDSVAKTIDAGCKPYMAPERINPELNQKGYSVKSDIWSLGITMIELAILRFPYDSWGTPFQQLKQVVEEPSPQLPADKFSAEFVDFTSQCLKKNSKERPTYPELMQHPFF
UniProt Q16539, whole entry, looked up: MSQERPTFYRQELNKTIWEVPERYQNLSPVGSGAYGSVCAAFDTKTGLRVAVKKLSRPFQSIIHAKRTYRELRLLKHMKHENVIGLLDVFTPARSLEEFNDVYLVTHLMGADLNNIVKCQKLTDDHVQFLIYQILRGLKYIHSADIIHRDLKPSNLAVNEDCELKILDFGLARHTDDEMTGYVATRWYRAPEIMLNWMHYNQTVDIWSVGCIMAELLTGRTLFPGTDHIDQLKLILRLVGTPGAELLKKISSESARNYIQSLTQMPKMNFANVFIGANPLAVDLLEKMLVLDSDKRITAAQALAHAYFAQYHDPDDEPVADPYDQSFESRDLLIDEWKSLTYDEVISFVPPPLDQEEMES
UniProt P15735, 6-293 limits assumed: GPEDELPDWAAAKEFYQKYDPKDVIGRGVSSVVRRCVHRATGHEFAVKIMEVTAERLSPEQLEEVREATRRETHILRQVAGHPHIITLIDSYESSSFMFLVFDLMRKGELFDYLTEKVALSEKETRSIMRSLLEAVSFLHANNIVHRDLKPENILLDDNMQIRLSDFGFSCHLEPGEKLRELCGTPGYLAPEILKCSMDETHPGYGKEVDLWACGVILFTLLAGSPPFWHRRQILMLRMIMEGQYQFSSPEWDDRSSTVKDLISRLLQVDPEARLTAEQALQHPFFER
UniProt P22830, 55-423 limits assumed: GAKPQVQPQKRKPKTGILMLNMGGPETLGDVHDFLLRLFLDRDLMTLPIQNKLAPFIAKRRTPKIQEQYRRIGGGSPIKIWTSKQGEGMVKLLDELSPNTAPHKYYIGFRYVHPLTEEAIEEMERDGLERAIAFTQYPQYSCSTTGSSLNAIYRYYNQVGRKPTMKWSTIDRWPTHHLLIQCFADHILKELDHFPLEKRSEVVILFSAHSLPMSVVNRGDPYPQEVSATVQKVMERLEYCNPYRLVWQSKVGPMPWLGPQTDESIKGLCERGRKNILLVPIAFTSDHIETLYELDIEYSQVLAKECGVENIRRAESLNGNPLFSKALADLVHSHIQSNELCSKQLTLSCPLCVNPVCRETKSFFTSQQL
UniProt P17948, 801-1158 limits assumed: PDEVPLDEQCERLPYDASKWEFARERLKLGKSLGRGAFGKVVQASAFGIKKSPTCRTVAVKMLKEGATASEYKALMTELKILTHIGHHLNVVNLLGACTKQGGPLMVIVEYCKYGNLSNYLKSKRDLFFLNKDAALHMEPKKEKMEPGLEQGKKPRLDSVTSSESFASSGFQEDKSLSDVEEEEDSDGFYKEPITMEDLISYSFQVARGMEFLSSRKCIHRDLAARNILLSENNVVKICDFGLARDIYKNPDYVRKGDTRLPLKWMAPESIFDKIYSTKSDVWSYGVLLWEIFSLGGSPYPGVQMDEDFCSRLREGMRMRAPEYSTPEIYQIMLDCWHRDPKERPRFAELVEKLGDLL
UniProt O14733, 120-380 limits assumed: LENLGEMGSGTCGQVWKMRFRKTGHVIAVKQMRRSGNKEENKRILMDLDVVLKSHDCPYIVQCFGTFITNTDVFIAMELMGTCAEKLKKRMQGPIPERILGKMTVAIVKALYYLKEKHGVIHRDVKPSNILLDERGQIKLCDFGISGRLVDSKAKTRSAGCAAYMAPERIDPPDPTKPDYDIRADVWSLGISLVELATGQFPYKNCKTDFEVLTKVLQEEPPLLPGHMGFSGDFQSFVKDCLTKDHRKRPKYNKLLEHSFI

Assays:
Experiment in all cases: DSF kinase panel
Settings in all cases: 10 μM
CAMK4 = CAMK4 (Homo sapiens, UniProt Q16566)
BRAF = BRAF (Homo sapiens, UniProt P15056)
FGFR2 = FGFR2 (Homo sapiens, UniProt P21802)
CK1d = CK1d (Homo sapiens, UniProt P48730)
MST4 = MST4 (Homo sapiens, UniProt Q9P289)
MER = MER (Homo sapiens, UniProt Q12866)
Erk2 = Erk2 (Homo sapiens, UniProt P28482)
SLK = SLK (Homo sapiens, UniProt Q9H2G2)
MSSK1 = MSSK1 (Homo sapiens, UniProt Q9UPE1)
NDR2 = NDR2 (Homo sapiens, UniProt Q9Y2H1)
JNK3 = JNK3 (Homo sapiens, UniProt P53779)
EPHA5 = EPHA5 (Homo sapiens, UniProt P54756)
p38d = p38d (Homo sapiens, UniProt O15264)
BRD4 = BRD4 (Homo sapiens, UniProt O60885)
NEK7 = NEK7 (Homo sapiens, UniProt Q8TDX7)
DRAK2 = DRAK2 (Homo sapiens, UniProt O94768)
MARK4 = MARK4 (Homo sapiens, UniProt Q96L34)
MAP3K5 = MAP3K5 (Homo sapiens, UniProt Q99683)
EphA2 = EphA2 (Homo sapiens, UniProt P29317)
JNK1 = JNK1 (Homo sapiens, UniProt P45983)
DCAMKL1 = DCAMKL1 (Homo sapiens, UniProt O15075)
MST1 = MST1 (Homo sapiens, UniProt Q13043)
PAK4 = PAK4 (Homo sapiens, UniProt O96013)
EPHA7 = EPHA7 (Homo sapiens, UniProt Q15375)
JNK2 = JNK2 (Homo sapiens, UniProt P45984)
DAPK1 = DAPK1 (Homo sapiens, UniProt P53355)
CHK2 = CHK2 (Homo sapiens, UniProt O96017)
MEK4 = MEK4 (Homo sapiens, UniProt P45985)
PCTAIRE1 = PCTAIRE1 (Homo sapiens, UniProt Q00536)
MST3 = MST3 (Homo sapiens, UniProt Q9Y6E0)
MAP2K6 = MAP2K6 (Homo sapiens, UniProt P52564)
p38a = p38a (Homo sapiens, UniProt Q16539)
MAPKAPK2 = MAPKAPK2 (Homo sapiens, UniProt P49137)
PHKg2 = PHKg2 (Homo sapiens, UniProt P15735)
Haspin = Haspin (Homo sapiens, UniProt Q8TF76)
MAP2K1 = MAP2K1 (Homo sapiens, UniProt Q02750)
FECH = FECH (Homo sapiens, UniProt P22830)
MST2 = MST2 (Homo sapiens, UniProt Q13188)
FLT1 = FLT1 (Homo sapiens, UniProt P17948)
EPHB3 = EPHB3 (Homo sapiens, UniProt P54753)
GAK = GAK (Homo sapiens, UniProt O14976)
MAP2K7 = MAP2K7 (Homo sapiens, UniProt O14733)

Compound: Clc1cnc2[nH]ccc2c1-c1ccn[nH]1
- ΔTm CAMK4 (CAMK4): -1.3 °C
- ΔTm BRAF (BRAF): 1.0 °C
- ΔTm FGFR2 (FGFR2): -0.1 °C
- ΔTm CK1d (CK1d): 1.8 °C
- ΔTm MST4 (MST4): -1.6 °C
- ΔTm MER (MER): -0.6 °C
- ΔTm Erk2 (Erk2): 0.0 °C
- ΔTm SLK (SLK): -0.4 °C
- ΔTm MSSK1 (MSSK1): -0.4 °C
- ΔTm NDR2 (NDR2): -1.1 °C
- ΔTm JNK3 (JNK3): 1.5 °C
- ΔTm EPHA5 (EPHA5): -0.6 °C
- ΔTm p38d (p38d): 0.3 °C
- ΔTm BRD4 (BRD4): 1.1 °C
- ΔTm NEK7 (NEK7): -1.1 °C
- ΔTm DRAK2 (DRAK2): 0.5 °C
- ΔTm MARK4 (MARK4): 1.1 °C
- ΔTm MAP3K5 (MAP3K5): 6.5 °C
- ΔTm EphA2 (EphA2): -0.3 °C
- ΔTm JNK1 (JNK1): 0.9 °C
- ΔTm DCAMKL1 (DCAMKL1): -0.9 °C
- ΔTm MST1 (MST1): 1.1 °C
- ΔTm PAK4 (PAK4): 3.6 °C
- ΔTm EPHA7 (EPHA7): 0.4 °C
- ΔTm JNK2 (JNK2): -0.3 °C
- ΔTm DAPK1 (DAPK1): 1.1 °C
- ΔTm CHK2 (CHK2): 2.9 °C
- ΔTm MEK4 (MEK4): 2.9 °C
- ΔTm PCTAIRE1 (PCTAIRE1): -0.2 °C
- ΔTm MST3 (MST3): -1.5 °C
- ΔTm MAP2K6 (MAP2K6): 2.1 °C
- ΔTm p38a (p38a): -0.7 °C
- ΔTm MAPKAPK2 (MAPKAPK2): -0.3 °C
- ΔTm PHKg2 (PHKg2): 2.9 °C
- ΔTm Haspin (Haspin): 1.3 °C
- ΔTm MAP2K1 (MAP2K1): -0.1 °C
- ΔTm FECH (FECH): -0.6 °C
- ΔTm MST2 (MST2): 1.5 °C
- ΔTm FLT1 (FLT1): 3.0 °C
- ΔTm EPHB3 (EPHB3): -1.9 °C
- ΔTm GAK (GAK): 1.5 °C
- ΔTm MAP2K7 (MAP2K7): -0.3 °C

Compound: Clc1cnc2[nH]ccc2c1-c1cn(-c2ccccc2)nn1
- ΔTm CAMK4 (CAMK4): -0.1 °C
- ΔTm BRAF (BRAF): 0.5 °C
- ΔTm FGFR2 (FGFR2): -0.3 °C
- ΔTm CK1d (CK1d): 1.4 °C
- ΔTm MST4 (MST4): -0.7 °C
- ΔTm MER (MER): -0.1 °C
- ΔTm Erk2 (Erk2): 0.2 °C
- ΔTm SLK (SLK): -0.6 °C
- ΔTm MSSK1 (MSSK1): -0.2 °C
- ΔTm NDR2 (NDR2): -1.1 °C
- ΔTm JNK3 (JNK3): 1.2 °C
- ΔTm EPHA5 (EPHA5): -0.5 °C
- ΔTm p38d (p38d): 0.2 °C
- ΔTm BRD4 (BRD4): 4.9 °C
- ΔTm NEK7 (NEK7): -0.3 °C
- ΔTm DRAK2 (DRAK2): 1.6 °C
- ΔTm MARK4 (MARK4): 2.3 °C
- ΔTm MAP3K5 (MAP3K5): 4.9 °C
- ΔTm EphA2 (EphA2): -0.6 °C
- ΔTm JNK1 (JNK1): 1.1 °C
- ΔTm DCAMKL1 (DCAMKL1): 0.6 °C
- ΔTm MST1 (MST1): 1.0 °C
- ΔTm PAK4 (PAK4): 1.8 °C
- ΔTm EPHA7 (EPHA7): 1.3 °C
- ΔTm JNK2 (JNK2): -0.1 °C
- ΔTm DAPK1 (DAPK1): 3.0 °C
- ΔTm CHK2 (CHK2): 1.9 °C
- ΔTm MEK4 (MEK4): 3.2 °C
- ΔTm PCTAIRE1 (PCTAIRE1): 0.0 °C
- ΔTm MST3 (MST3): -0.9 °C
- ΔTm MAP2K6 (MAP2K6): 1.9 °C
- ΔTm p38a (p38a): -0.7 °C
- ΔTm MAPKAPK2 (MAPKAPK2): -0.3 °C
- ΔTm PHKg2 (PHKg2): 0.7 °C
- ΔTm Haspin (Haspin): 1.0 °C
- ΔTm MAP2K1 (MAP2K1): 0.1 °C
- ΔTm FECH (FECH): -2.4 °C
- ΔTm MST2 (MST2): 0.7 °C
- ΔTm FLT1 (FLT1): 3.2 °C
- ΔTm EPHB3 (EPHB3): -2.3 °C
- ΔTm GAK (GAK): 1.1 °C
- ΔTm MAP2K7 (MAP2K7): -0.4 °C

Compound: NC(=O)Cn1cc(-c2c(Cl)cnc3[nH]ccc23)nn1
- ΔTm CAMK4 (CAMK4): -1.0 °C
- ΔTm BRAF (BRAF): 0.9 °C
- ΔTm FGFR2 (FGFR2): -0.1 °C
- ΔTm CK1d (CK1d): 3.8 °C
- ΔTm MST4 (MST4): -1.5 °C
- ΔTm MER (MER): -0.6 °C
- ΔTm Erk2 (Erk2): 0.5 °C
- ΔTm SLK (SLK): -0.6 °C
- ΔTm MSSK1 (MSSK1): -0.4 °C
- ΔTm NDR2 (NDR2): -1.1 °C
- ΔTm JNK3 (JNK3): 1.4 °C
- ΔTm EPHA5 (EPHA5): -0.7 °C
- ΔTm p38d (p38d): 0.3 °C
- ΔTm BRD4 (BRD4): 0.8 °C
- ΔTm NEK7 (NEK7): -1.0 °C
- ΔTm DRAK2 (DRAK2): 1.1 °C
- ΔTm MARK4 (MARK4): 1.7 °C
- ΔTm MAP3K5 (MAP3K5): 9.4 °C
- ΔTm EphA2 (EphA2): -0.3 °C
- ΔTm JNK1 (JNK1): 0.8 °C
- ΔTm DCAMKL1 (DCAMKL1): -0.5 °C
- ΔTm MST1 (MST1): 1.2 °C
- ΔTm PAK4 (PAK4): 1.7 °C
- ΔTm EPHA7 (EPHA7): 0.7 °C
- ΔTm JNK2 (JNK2): 0.1 °C
- ΔTm DAPK1 (DAPK1): 1.5 °C
- ΔTm CHK2 (CHK2): 2.4 °C
- ΔTm MEK4 (MEK4): 4.5 °C
- ΔTm PCTAIRE1 (PCTAIRE1): -0.6 °C
- ΔTm MST3 (MST3): -1.8 °C
- ΔTm MAP2K6 (MAP2K6): 3.7 °C
- ΔTm p38a (p38a): -0.7 °C
- ΔTm MAPKAPK2 (MAPKAPK2): 0.0 °C
- ΔTm PHKg2 (PHKg2): 1.1 °C
- ΔTm Haspin (Haspin): 3.0 °C
- ΔTm MAP2K1 (MAP2K1): 0.2 °C
- ΔTm FECH (FECH): 7.0 °C
- ΔTm MST2 (MST2): 0.8 °C
- ΔTm FLT1 (FLT1): 4.6 °C
- ΔTm EPHB3 (EPHB3): -1.6 °C
- ΔTm GAK (GAK): 2.4 °C
- ΔTm MAP2K7 (MAP2K7): -0.4 °C

Compound: C[C@H](CO)Cn1cc(-c2c(Cl)cnc3[nH]ccc23)nn1
- ΔTm CAMK4 (CAMK4): 0.6 °C
- ΔTm BRAF (BRAF): 1.3 °C
- ΔTm FGFR2 (FGFR2): -0.1 °C
- ΔTm CK1d (CK1d): 3.8 °C
- ΔTm MST4 (MST4): -0.9 °C
- ΔTm MER (MER): 0.4 °C
- ΔTm Erk2 (Erk2): 0.9 °C
- ΔTm SLK (SLK): 0.1 °C
- ΔTm MSSK1 (MSSK1): 0.0 °C
- ΔTm NDR2 (NDR2): -1.0 °C
- ΔTm JNK3 (JNK3): 1.7 °C
- ΔTm EPHA5 (EPHA5): -0.6 °C
- ΔTm p38d (p38d): 1.1 °C
- ΔTm BRD4 (BRD4): 1.5 °C
- ΔTm NEK7 (NEK7): -0.5 °C
- ΔTm DRAK2 (DRAK2): 3.0 °C
- ΔTm MARK4 (MARK4): 2.1 °C
- ΔTm MAP3K5 (MAP3K5): 5.2 °C
- ΔTm EphA2 (EphA2): -0.2 °C
- ΔTm JNK1 (JNK1): 1.6 °C
- ΔTm DCAMKL1 (DCAMKL1): 0.6 °C
- ΔTm MST1 (MST1): 2.0 °C
- ΔTm PAK4 (PAK4): 3.3 °C
- ΔTm EPHA7 (EPHA7): 1.3 °C
- ΔTm JNK2 (JNK2): 0.2 °C
- ΔTm DAPK1 (DAPK1): 3.1 °C
- ΔTm CHK2 (CHK2): 2.4 °C
- ΔTm MEK4 (MEK4): 4.7 °C
- ΔTm PCTAIRE1 (PCTAIRE1): 0.6 °C
- ΔTm MST3 (MST3): -1.5 °C
- ΔTm MAP2K6 (MAP2K6): 4.1 °C
- ΔTm p38a (p38a): -0.7 °C
- ΔTm MAPKAPK2 (MAPKAPK2): -0.3 °C
- ΔTm PHKg2 (PHKg2): 1.1 °C
- ΔTm Haspin (Haspin): 1.1 °C
- ΔTm MAP2K1 (MAP2K1): 1.2 °C
- ΔTm FECH (FECH): -1.1 °C
- ΔTm MST2 (MST2): 2.5 °C
- ΔTm FLT1 (FLT1): 4.4 °C
- ΔTm EPHB3 (EPHB3): -1.1 °C
- ΔTm GAK (GAK): 3.4 °C
- ΔTm MAP2K7 (MAP2K7): -0.6 °C
